Glyco luc inh: N-linked glycosylation inhibition. D54 ERlucT glycosylation luciferase reporter, 24 h; percent of 100 nM tunicamycin response. reporter increase, % at 12.5 µM. 360,000 compounds, 0.23% hits. AID 588692;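 active = mean luciferase reporter signal, scaled so untreated is 0 and the glycosylation-blocking control 100, at or above a set limit in every replicate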;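 also: luciferase carries N-glycosylation sites so blocking glycosylation raises the light; 0% = median of neutral control wells and 100% = median of 100 nM tunicamycin wells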
miR-122 sensor: blocks miR-122 activity in Huh7 sensor cells. Huh7 miR-122 Renilla luciferase sensor, 48 h; neutral wells = 0, positive control = 100. activation (reporter increase), % at 12.5 µM. 340,000 compounds, 0.3% hits. AID 602342;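 active = mean replicate activation score at least 90 and every replicate individually at or above 90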;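 also: higher luciferase means less miR-122 activity so hits act as miR-122 inhibitors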
Yeast UUG start: modulators of start codon recognition fidelity in yeast; AID 602363; hit rate 0.13% among 350,000; activity score, % at 18.7 µM; S. cerevisiae UUG-firefly luciferase reporter, luminescence/redox ratio;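 active = replicate mean at a twofold rise or more, about +100% in these data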;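 note: firefly luciferase made from a UUG start codon reports start codon fidelity; reporter light over untreated wells divided by growth signal over untreated wells; some hits fall short of that in this replicate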
Cneo AK release: causes C. neoformans cell lysis | 360,000 compounds, 0.2% hits | lysis activity, % at 15 µM | adenylate kinase release luminescence, 4 h; normalised: neutral wells 0, clomiphene wells 100;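 active = mean lysis activity across replicates of at least 80%, whatever share of replicates individually reach that level; inactive = mean lysis activity below 80%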
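Material: C. neoformans cells; Schedule: 4 h static compound exposure, 37 °C, read 1 h post-reagent; Measured by: adenylate kinase release luminescence; Read-out: signal increase indicating cell lysis; Controls: Clomiphene as positive lysis control.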
Statin myotox sup: suppression of simvastatin myotoxicity; C2C12 myotubes + simvastatin, ATP luminescence, 48 h; scaled: DMSO 0, geranylgeraniol control 100; rescue of ATP level, % at 7.49 µM; 330,000 compounds, 0.78% hits; AID 602340;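 active = mean ATP rescue above about 67%, or every replicate alone reaching that limit, limit read from the data, passing the limit was not always enough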;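 also: myotubes were challenged with 10 µM simvastatin during compound exposure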
* marks the source's active call; other numbers are inactive results; [ ] = remark or other dose. Rows were chosen to be rich in hits. Some 1.2% of all compounds tested hit in one or more screens of this group.

The first 3 entries, to show the layout:
How did Cc1cc(O)c(C(C)C)cc1N=Nc1ccccc1C(=O)O do in these assays?
Glyco luc inh: -0.4; miR-122 sensor: 189.7*; Yeast UUG start: -13.4; Cneo AK release: 3.5; Statin myotox sup: 7.0

Results for CC(C)NC(=O)Nc1ccc2c(c1)C(=O)N([C@H](C)CO)C[C@H](C)[C@H](CN(C)S(=O)(=O)c1ccc(Cl)cc1)O2 ?
miR-122 sensor: -4.4[16.7 µM]; Yeast UUG start: 0.1; Cneo AK release: 0.5; Statin myotox sup: 8.0

Results for Cc1ccc(/C=C2\SC(=S)N(CCC(=O)N3CCCCC3)C2=O)cc1 ?
Glyco luc inh: 17.8; Yeast UUG start: -12.4; Cneo AK release: 53.3; Statin myotox sup: 4.6

Results, repeating the preview:
How did Cc1cc(O)c(C(C)C)cc1N=Nc1ccccc1C(=O)O do in these assays?
Glyco luc inh: -0.4; miR-122 sensor: 189.7*; Yeast UUG start: -13.4; Cneo AK release: 3.5; Statin myotox sup: 7.0

Results for CC(C)NC(=O)Nc1ccc2c(c1)C(=O)N([C@H](C)CO)C[C@H](C)[C@H](CN(C)S(=O)(=O)c1ccc(Cl)cc1)O2 ?
miR-122 sensor: -4.4[16.7 µM]; Yeast UUG start: 0.1; Cneo AK release: 0.5; Statin myotox sup: 8.0

Results for Cc1ccc(/C=C2\SC(=S)N(CCC(=O)N3CCCCC3)C2=O)cc1 ?
Glyco luc inh: 17.8; Yeast UUG start: -12.4; Cneo AK release: 53.3; Statin myotox sup: 4.6

What do the screens show for `COc1cc(/C=C2\SC(=S)N(CCC(=O)N3CCCCC3)C2=O)cc(OC)c1OC`?
Glyco luc inh: 69.7*; miR-122 sensor: -3.6; Yeast UUG start: -3.6; Cneo AK release: 2.1; Statin myotox sup: 17.0

What do the screens show for `O=C(CCN1C(=O)/C(=C/c2cccs2)SC1=S)N1CCCCC1`?
Glyco luc inh: 49.8*; miR-122 sensor: -0.4; Yeast UUG start: 9.4; Cneo AK release: 1.3; Statin myotox sup: -6.7

What do the screens show for `O=C(CCN1C(=O)/C(=C\c2ccccc2)SC1=S)N1CCCCC1`?
Glyco luc inh: 55.9*; miR-122 sensor: -9.0; Yeast UUG start: -9.1; Cneo AK release: 3.7; Statin myotox sup: 3.8

What do the screens show for `C[C@H]1CN([C@@H](C)CO)C(=O)CCCn2cc(nn2)CO[C@H]1CN(C)Cc1ccccc1`?
miR-122 sensor: -2.9[16.7 µM]; Cneo AK release: -20.9; Statin myotox sup: 4.2

What do the screens show for `CCOC(=O)c1cnc2c(-c3ccc(Cl)cc3)c(C)nn2c1N`?
Glyco luc inh: -0.6; miR-122 sensor: 2.9; Yeast UUG start: -16.7; Cneo AK release: -0.2; Statin myotox sup: 87.5*

Results for Cc1cc(S(=O)(=O)N2c3ccc(F)cc3CCC2C)ccc1-n1cnnn1 (stereo not drawn) ?
Glyco luc inh: 0.0; miR-122 sensor: 13.2; Statin myotox sup: -1.8

Results for CCCN1C[C@H](C)[C@H](OC)CN(C)C(=O)c2ccc(NC(=O)c3ccccc3)cc2OC[C@H]1C ?
miR-122 sensor: 3.5[16.7 µM]; Yeast UUG start: -1.8; Cneo AK release: -6.1; Statin myotox sup: 7.2

How did O=C(NCCCNCCCNC(=O)c1ccccn1)c1ccccn1 do in these assays?
Glyco luc inh: 0.0; miR-122 sensor: -3.4; Yeast UUG start: -9.8; Cneo AK release: -1.2; Statin myotox sup: 115.0*

What do the screens show for `CN(C)CCCNCCCNC(=O)c1ccccn1`?
Glyco luc inh: 1.9; miR-122 sensor: -4.4; Yeast UUG start: -12.3; Cneo AK release: -2.0; Statin myotox sup: -2.4

What do the screens show for `Cc1ccc(C2CCN(C(=S)NC3CCCCC3)C2)cc1` (stereo not drawn)?
Glyco luc inh: 1.1; miR-122 sensor: 2.4; Yeast UUG start: -3.1; Cneo AK release: 119.1*; Statin myotox sup: -24.8

How did O=C(COc1ccc2c3c(c(=O)oc2c1)CCC3)N1CCCC1 do in these assays?
Glyco luc inh: 2.6; miR-122 sensor: -8.8; Yeast UUG start: -0.1; Cneo AK release: -0.6; Statin myotox sup: -5.9

What do the screens show for `O=C(O)COc1ccc2c3c(c(=O)oc2c1)CCC3`?
Glyco luc inh: 3.4; miR-122 sensor: -5.3; Yeast UUG start: -1.0; Cneo AK release: -2.5; Statin myotox sup: 116.7*

Results for COc1ccc(C(=O)C(C)OC(=O)CNC(=O)c2ccco2)cc1 (stereo not drawn) ?
Glyco luc inh: 0.2; miR-122 sensor: -1.7; Yeast UUG start: -7.6; Cneo AK release: 1.8; Statin myotox sup: 2.9

How did C[C@H](CO)N1C[C@H](C)[C@H](CN(C)Cc2cncnc2)Oc2ncc(-c3ccc(F)cc3)cc2C1=O do in these assays?
miR-122 sensor: 19.2[16.7 µM]; Yeast UUG start: 1.7; Cneo AK release: -1.5; Statin myotox sup: -2.3

Results for Cc1noc(C)c1NC(=O)Nc1ccc2c(c1)CC(=O)N([C@H](C)CO)C[C@@H](C)[C@H](CN(C)CC1CC1)O2 ?
miR-122 sensor: 1.2[16.7 µM]; Yeast UUG start: -13.8; Cneo AK release: 4.5; Statin myotox sup: -32.0

What do the screens show for `Cc1cc(C)c(NC(=O)Cn2nnc(C(=O)NCc3ccc4c(c3)OCO4)c2N)c(C)c1`?
Glyco luc inh: -0.4; miR-122 sensor: 1.6; Yeast UUG start: 1.9; Cneo AK release: 1.2; Statin myotox sup: 92.0*

Results for CCCCOC(=O)CSC1=C(C#N)C(c2ccc3c(c2)OCO3)CC(=O)N1 (stereo not drawn) ?
Glyco luc inh: -1.9; miR-122 sensor: 7.4; Yeast UUG start: -10.5; Cneo AK release: -0.9; Statin myotox sup: 101.5*

How did CCOC(=O)CSC1=C(C#N)C(c2ccc3c(c2)OCO3)CC(=O)N1 (stereo not drawn) do in these assays?
Glyco luc inh: 5.5; miR-122 sensor: -5.1; Yeast UUG start: -5.2; Cneo AK release: -0.2

What do the screens show for `CCOc1ccc(NS(=O)(=O)c2ccc(C(=O)N(C)CC(=O)Nc3ccc(OC)cc3)cc2)cc1`?
Glyco luc inh: -2.2

Results for CC(C)CC(=O)NC(=S)Nc1ccc(S(=O)(=O)NC(C)(C)C)cc1 ?
Glyco luc inh: -0.7

How did C=C(C)CN(CC)C(=O)COc1ccc(S(=O)(=O)Nc2ccc(OC)cc2)cc1 do in these assays?
Glyco luc inh: -2.0; miR-122 sensor: 186.4*; Yeast UUG start: 0.4; Cneo AK release: 1.7; Statin myotox sup: -1.7

How did CCCC(=O)NC(=S)Nc1ccc(S(=O)(=O)Nc2ccc(OCC)cc2)cc1 do in these assays?
Glyco luc inh: 0.0; miR-122 sensor: 181.2*; Yeast UUG start: -8.6; Cneo AK release: -3.4; Statin myotox sup: -21.2

Results for CCOc1ccc(NS(=O)(=O)c2ccc(NC(=S)NC(=O)CC(C)C)cc2)cc1 ?
Glyco luc inh: -3.4; miR-122 sensor: 165.8*

Results for CO[C@@H]1CN(C)C(=O)c2cc(NC(=O)c3cnccn3)ccc2OC[C@@H](C)N(CCc2ccccc2)C[C@@H]1C ?
Yeast UUG start: -6.0; Cneo AK release: 1.6; Statin myotox sup: -3.4

Results for COc1ccc(NC(=O)N(C)C[C@H]2Oc3ccc(N(C)C)cc3CC(=O)N([C@H](C)CO)C[C@H]2C)cc1 ?
miR-122 sensor: 1.5[16.7 µM]; Cneo AK release: 3.7; Statin myotox sup: 16.7

How did O=C(COC(=O)c1n[nH]c2ccccc12)NC(=O)NCc1ccco1 do in these assays?
Glyco luc inh: 3.9; miR-122 sensor: -0.8; Yeast UUG start: 2.7; Cneo AK release: 1.3; Statin myotox sup: 72.6*

How did O=C(COC(=O)c1cccs1)NCc1ccccc1 do in these assays?
Glyco luc inh: 0.4; Yeast UUG start: -13.1; Cneo AK release: -1.4; Statin myotox sup: 5.0

What do the screens show for `O=C(COC(=O)c1cccs1)NCc1ccco1`?
Glyco luc inh: 2.6; miR-122 sensor: -6.3; Yeast UUG start: -5.5; Cneo AK release: -0.5; Statin myotox sup: 131.3*

Results for COc1cc(NC(=O)c2cccs2)c(C(=O)OCC(=O)NCc2ccco2)cc1OC ?
Glyco luc inh: 1.1; miR-122 sensor: -2.6; Yeast UUG start: -28.4; Cneo AK release: -0.8; Statin myotox sup: 105.5*

Screening results deposited in PubChem BioAssay by Broad Institute.
